9 compounds from PubChem BioAssay (NCI) can be followed below.

Among the test systems are SK-MEL-2 melanoma; SN12C renal; UO-31 renal; TK-10 renal; ACHN renal; CAKI-1 renal; A498 renal; HL-60(TB) leukemia; CCRF-CEM leukemia; MOLT-4 leukemia; SR leukemia; RPMI-8226 leukemia; OVCAR-8 ovarian; OVCAR-5 ovarian; OVCAR-4 ovarian; SK-OV-3 ovarian; IGROV1 ovarian; OVCAR-3 ovarian; HS 578T breast; EKVX NSCLC.
Holding throughout (assay): NCI-60 one-dose screen, 48 h (100 = growth as untreated, 0 = no growth, -100 = all killed)
Holding throughout (conditions): 10 µM unless noted

Only a part is listed here, and it is no random draw.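 Percent growth is the endpoint: 0 to 100 indicates growth inhibition (40 means 60% inhibition), 0 means no net growth, and negative values indicate cell death.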 Active and inactive are the calls of the source. How the source made its calls: active means growth percent below 10; inactive means the rest.

With `ClCCN1CCNCC1`, the growth in the assay with SK-MEL-2 melanoma is inactive: 100%; in the assay with SN12C renal, inactive: 96.6%; in the assay with UO-31 renal, inactive: 87.7%; in the assay with TK-10 renal it was inactive: 97%; in the assay on ACHN renal, inactive: 103%; in the assay with CAKI-1 renal it was inactive: 95.7%. Besides, the growth in the assay on A498 renal is inactive: 104%; in the assay with HL-60(TB) leukemia, inactive: 101%; with CCRF-CEM leukemia, inactive: 106%; in the assay with MOLT-4 leukemia, inactive: 107%; in the assay with SR leukemia, inactive: 108%; in the assay with RPMI-8226 leukemia, inactive: 104%. The growth in the assay with OVCAR-8 ovarian was inactive: 101%; with OVCAR-5 ovarian, inactive: 115%; with OVCAR-4 ovarian, inactive: 109%; in the assay on SK-OV-3 ovarian, inactive: 105%; with IGROV1 ovarian, inactive: 118%; with OVCAR-3 ovarian, inactive: 108%. In addition, the growth in the assay with HS 578T breast is inactive: 105%.

`Cc1ccc(SP(=O)(CCl)N(CCCl)CCCl)cc1` (centres undefined): the growth was inactive: 83.5% in the assay with SK-MEL-2 melanoma; inactive: 101% in the assay with SN12C renal; inactive: 84.6% in the assay on UO-31 renal; inactive: 97% in the assay on TK-10 renal; inactive: 94.4% in the assay with ACHN renal; inactive: 87.7% in the assay with CAKI-1 renal. Also, the growth is inactive: 101% in the assay with A498 renal; inactive: 97% with HL-60(TB) leukemia; inactive: 94.3% in the assay with MOLT-4 leukemia; inactive: 72.7% in the assay on SR leukemia; inactive: 91.3% with RPMI-8226 leukemia; inactive: 94.9% with OVCAR-8 ovarian. Moreover, the growth in the assay on OVCAR-5 ovarian was inactive: 92.9%; in the assay with OVCAR-4 ovarian, inactive: 95.6%; in the assay with SK-OV-3 ovarian, inactive: 104%; in the assay with OVCAR-3 ovarian it was inactive: 106%.

Consider `ClCCN1CCc2ccccc2C1`, for which the growth is inactive: 104% in the assay with SK-MEL-2 melanoma; inactive: 92.8% in the assay on SN12C renal; inactive: 74.6% in the assay on UO-31 renal; inactive: 88.3% in the assay on TK-10 renal; inactive: 88.9% with ACHN renal; inactive: 98.6% in the assay on A498 renal. In addition, the growth in the assay on HL-60(TB) leukemia was inactive: 96.5%; in the assay on MOLT-4 leukemia, inactive: 86%; with SR leukemia, inactive: 82.4%; in the assay on RPMI-8226 leukemia, inactive: 94.4%; in the assay on OVCAR-8 ovarian, inactive: 102%; in the assay with OVCAR-5 ovarian, inactive: 101%. Further, the growth in the assay with OVCAR-4 ovarian is inactive: 114%; with SK-OV-3 ovarian it was inactive: 108%; in the assay on IGROV1 ovarian, inactive: 73.3%; in the assay with OVCAR-3 ovarian, inactive: 112%; in the assay on HS 578T breast, inactive: 96.8%.

On to `CN(C)P(=O)(Nc1ccccn1)N(C)C`, for which the growth in the assay on SK-MEL-2 melanoma was inactive: 104%; with SN12C renal, inactive: 99.6%; in the assay on UO-31 renal it was inactive: 93.7%; with TK-10 renal it was inactive: 104%; in the assay on ACHN renal it was inactive: 104%; in the assay with CAKI-1 renal, inactive: 101%. For the same compound, the growth in the assay on A498 renal was inactive: 90.7%; with HL-60(TB) leukemia, inactive: 95.5%; in the assay on MOLT-4 leukemia, inactive: 105%; with RPMI-8226 leukemia it was inactive: 103%; with OVCAR-8 ovarian, inactive: 103%; in the assay with OVCAR-5 ovarian, inactive: 110%. Also, the growth was inactive: 107% in the assay on OVCAR-4 ovarian; inactive: 107% in the assay on SK-OV-3 ovarian; inactive: 117% with IGROV1 ovarian; inactive: 113% in the assay on OVCAR-3 ovarian; inactive: 124% with HS 578T breast.

Regarding `CC1(C)NC(C)(C)C(Br)C(=O)C1Br` (centres undefined), the growth is inactive: 111% in the assay with EKVX NSCLC; inactive: 114% with SN12C renal; inactive: 105% in the assay on UO-31 renal; inactive: 114% in the assay on TK-10 renal; inactive: 113% in the assay with ACHN renal; inactive: 98.2% in the assay on CAKI-1 renal. Further, the growth was inactive: 132% with A498 renal; inactive: 61.4% with HL-60(TB) leukemia; inactive: 110% with CCRF-CEM leukemia; inactive: 97.8% in the assay on MOLT-4 leukemia; inactive: 90.6% in the assay with SR leukemia; inactive: 109% with RPMI-8226 leukemia. The growth is inactive: 115% in the assay on OVCAR-8 ovarian; inactive: 109% in the assay on OVCAR-5 ovarian; inactive: 110% in the assay on OVCAR-4 ovarian; inactive: 100% with SK-OV-3 ovarian; inactive: 102% in the assay with IGROV1 ovarian; inactive: 110% with OVCAR-3 ovarian. In addition, the growth in the assay with HS 578T breast was inactive: 111%.

Regarding `CN(CCCl)CC1OC(O)C(O)C(O)C1O` (centres undefined), the growth was inactive: 120% in the assay on SK-MEL-2 melanoma; inactive: 103% in the assay on SN12C renal; inactive: 87.4% in the assay on UO-31 renal; inactive: 96% with TK-10 renal; inactive: 96.5% with ACHN renal; inactive: 105% in the assay with CAKI-1 renal. For the same compound, the growth is inactive: 107% in the assay on A498 renal; inactive: 104% in the assay on HL-60(TB) leukemia; inactive: 101% with MOLT-4 leukemia; inactive: 92.3% in the assay on SR leukemia; inactive: 104% in the assay with RPMI-8226 leukemia; inactive: 94.6% in the assay with OVCAR-8 ovarian. Also, the growth in the assay on OVCAR-5 ovarian was inactive: 99.9%; in the assay with OVCAR-4 ovarian it was inactive: 98.4%; with SK-OV-3 ovarian, inactive: 104%; with OVCAR-3 ovarian it was inactive: 110%; in the assay on HS 578T breast, inactive: 104%.

As for `Nc1ccc(N(CCCl)CCCl)cc1`, the growth was inactive: 132% with SK-MEL-2 melanoma; inactive: 39.5% with SN12C renal; inactive: 49.9% in the assay with UO-31 renal; inactive: 96.2% in the assay on TK-10 renal; inactive: 20.9% in the assay with ACHN renal; active: -8.97% in the assay on CAKI-1 renal. Further, the growth with A498 renal was inactive: 113%; in the assay on HL-60(TB) leukemia, inactive: 17.2%; in the assay on MOLT-4 leukemia, inactive: 18.2%; in the assay with SR leukemia it was active: 3.14%; with RPMI-8226 leukemia, inactive: 84%; in the assay with OVCAR-8 ovarian it was inactive: 83.8%. In addition, the growth is inactive: 95.7% in the assay with OVCAR-5 ovarian; inactive: 96.3% in the assay with OVCAR-4 ovarian; inactive: 82.4% in the assay with SK-OV-3 ovarian; inactive: 67.2% in the assay with IGROV1 ovarian; inactive: 79.8% in the assay on OVCAR-3 ovarian; inactive: 107% in the assay on HS 578T breast.

Regarding `OP1OCCO1`, the growth in the assay on SK-MEL-2 melanoma was inactive: 97.3%; in the assay with SN12C renal, inactive: 101%; in the assay with UO-31 renal, inactive: 85.7%; with TK-10 renal, inactive: 109%; in the assay on ACHN renal, inactive: 102%; with CAKI-1 renal, inactive: 89.1%. The growth in the assay on A498 renal is inactive: 110%; with HL-60(TB) leukemia it was inactive: 111%; with MOLT-4 leukemia, inactive: 97.1%; with SR leukemia, inactive: 82.2%; in the assay with RPMI-8226 leukemia, inactive: 95.7%; in the assay on OVCAR-8 ovarian, inactive: 96.6%. In addition, the growth was inactive: 109% in the assay on OVCAR-5 ovarian; inactive: 107% in the assay with OVCAR-4 ovarian; inactive: 108% in the assay on SK-OV-3 ovarian; inactive: 100% with IGROV1 ovarian; inactive: 114% in the assay on OVCAR-3 ovarian; inactive: 110% in the assay with HS 578T breast.

With `O=C(O)/C=C\c1cccc(N(CCCl)CCCl)c1`, the growth in the assay on SK-MEL-2 melanoma is inactive: 133%; in the assay on SN12C renal, inactive: 99.7%; with UO-31 renal it was inactive: 87.8%; in the assay with TK-10 renal, inactive: 110%; in the assay with ACHN renal it was inactive: 94.8%; in the assay on CAKI-1 renal it was inactive: 61.4%. The growth with A498 renal was inactive: 105%; in the assay on HL-60(TB) leukemia, inactive: 106%; in the assay on MOLT-4 leukemia, inactive: 95.5%; in the assay with SR leukemia, inactive: 75%; in the assay on RPMI-8226 leukemia it was inactive: 93.2%; with OVCAR-8 ovarian, inactive: 92.1%. The growth in the assay on OVCAR-5 ovarian is inactive: 105%; in the assay with OVCAR-4 ovarian it was inactive: 119%; in the assay with SK-OV-3 ovarian it was inactive: 113%; in the assay with IGROV1 ovarian it was inactive: 70.9%; in the assay on OVCAR-3 ovarian, inactive: 117%; in the assay with HS 578T breast it was inactive: 104%.
